# AlphaSeq binding of Ab-14 heavy chain variants to a spike HR2 peptide

Data: MIT Lincoln Laboratory AlphaSeq set, Engelhart et al. 2022, doi:10.1038/s41597-022-01779-4, as distributed in FLAb.

Binding partner: SARS-CoV-2 spike HR2 peptide, sequence PDVDLGDISGINAS.

Ab-14 is the parent antibody, in scFv form: VH, then three GGGGS repeats, then VL. The light chain is unchanged in all variants.
VH: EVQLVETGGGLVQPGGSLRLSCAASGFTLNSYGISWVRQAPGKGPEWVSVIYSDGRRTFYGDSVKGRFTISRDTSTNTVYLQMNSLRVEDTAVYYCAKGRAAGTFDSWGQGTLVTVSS
VL: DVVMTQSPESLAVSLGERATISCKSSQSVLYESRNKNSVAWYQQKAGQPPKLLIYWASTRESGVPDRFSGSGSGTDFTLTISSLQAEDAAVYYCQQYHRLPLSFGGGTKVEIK

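Phage display of a naive human antibody library on the peptide gave the parent. In library AAYL49, one, two or three CDR residues were substituted; doubles and triples were drawn at random. The assay is AlphaSeq: two haploid yeast populations carry antibody and antigen on their surface. Mating (16 h, 30 °C) was followed by selection of diploids and sequencing of their barcodes. The ratio of observed to expected reads was calibrated, replicate by replicate, on BCL2-family standards whose Kd was known from biolayer interferometry. The assay was run in three technical replicates.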

Changes read parent residue, position, new residue, counted from the first residue of the VH shown.
Affinities are written as log10 Kd with Kd in nM; a lower number is a better binder.
The mean shown is taken over the replicates in which the pair was detected.
Where no diploid with the target was found in that replicate, the entry reads "n.d.": below detection, most likely a poor binder, though not proof of it.
In this assay the parent's reference entry averaged 0.65; its copy inside this library read 4.11 (one replicate of three).
As a blank, each scFv also met three strains without target: over library AAYL49, 15% of these pairings were detected, typically at 4.06 and seldom below 2.83. For each scFv, signals with the empty controls are counted beside the result, with their mean in brackets.

| changes | log10 Kd (nM) by replicate | mean log10 Kd (nM) | empty controls |
|---|---|---|---|
| S31Y+F59K | n.d. / n.d. / 3.51 | 3.51 | 0/9 |
| F27H+Y52G | n.d. / n.d. / n.d. | n.d. | 0/9 |
| V50W+S53P+R57V | 4.16 / 4.38 / 4.79 | 4.45 | 3/9 (4.26) |
| T58L+Y60M+K65I | n.d. / n.d. / n.d. | n.d. | 0/9 |
| V50D+I51Q+R57A | n.d. / n.d. / n.d. | n.d. | 1/9 (3.29) |
| T28E+S35P+Y60V | n.d. / n.d. / n.d. | n.d. | 0/9 |
| F27C+Y52G+V64M | n.d. / n.d. / 4.94 | 4.94 | 2/9 (4.26) |
| G61Y+A101S | n.d. / n.d. / n.d. | n.d. | 0/9 |
| T28K+S35Q+V50S | n.d. / 3.26 / n.d. | 3.26 | 0/9 |
| S53F+V64W+G99M | n.d. / n.d. / n.d. | n.d. | 0/9 |
| G26W+S35H+G55R | n.d. / n.d. / 4.84 | 4.84 | 1/9 (5.49) |
| G33W+F105E | n.d. / n.d. / n.d. | n.d. | 3/9 (3.32) |
| V50A+Y52R+K65L | n.d. / 3.68 / n.d. | 3.68 | 1/9 (4.02) |
| N30Y+F105M | n.d. / n.d. / n.d. | n.d. | 2/9 (4.29) |
| G61K+S63G+G99K | 3.68 / n.d. / 4.01 | 3.84 | 6/9 (4.01) |
| V50K+I51M+Y52M | n.d. / n.d. / 4.67 | 4.67 | 2/9 (3.61) |
| G26T+A102F | n.d. / n.d. / n.d. | n.d. | 0/9 |
| G33R+D62H+A102R | 5.40 / n.d. / n.d. | 5.40 | 2/9 (4.01) |
| R57F+F59Y | n.d. / n.d. / n.d. | n.d. | 2/9 (3.23) |
| L29P+I51F+T58Q | n.d. / n.d. / 4.55 | 4.55 | 1/9 (3.78) |
| N30S+A102D+G103K | n.d. / n.d. / n.d. | n.d. | 0/9 |
| I51G+T58W | n.d. / n.d. / n.d. | n.d. | 0/9 |
| G33P+T58E+Y60E | n.d. / n.d. / n.d. | n.d. | 3/9 (4.58) |
| R57L+G61R+V64M | n.d. / n.d. / n.d. | n.d. | 0/9 |
| K65R+G103S | 0.58 / 0.76 / 0.56 | 0.63 | 1/9 (4.26) |
| G26D+S53T+D62C | 3.18 / n.d. / n.d. | 3.18 | 0/9 |
| L29A+S63K+V64F | 2.55 / 2.47 / 3.02 | 2.68 | 3/9 (3.96) |
| Y32L+Y60L+G61D | 5.09 / 4.46 / 4.51 | 4.69 | 9/9 (5.03) |
| G33A+S53I+G99M | n.d. / n.d. / n.d. | n.d. | 2/9 (3.99) |
| F59C+G61R+S63C | n.d. / n.d. / 4.81 | 4.81 | 0/9 |
| G33P+S35F+G103A | 4.65 / 3.72 / 5.00 | 4.46 | 3/9 (4.16) |
| L29A+G61H+S63V | n.d. / 3.84 / n.d. | 3.84 | 0/9 |
| T58Y+G61H+V64M | n.d. / n.d. / n.d. | n.d. | 0/9 |
| F105L | 1.66 / 1.85 / 1.95 | 1.82 | 5/9 (4.59) |
| D54M+A101H+G103V | n.d. / n.d. / n.d. | n.d. | 0/9 |
| G26I+V50K+G103F | 4.69 / n.d. / n.d. | 4.69 | 3/9 (5.04) |
| R56S+K65N+D106M | 2.48 / 2.17 / 2.80 | 2.48 | 2/9 (4.00) |
| T58Q+S63H+T104S | n.d. / n.d. / n.d. | n.d. | 0/9 |
| F27S+F105E+D106T | 2.11 / 2.07 / 2.83 | 2.34 | 2/9 (4.13) |
| Y32C+Y52I+S107V | n.d. / n.d. / n.d. | n.d. | 0/9 |
| N30P+D54Q+G61K | n.d. / 3.46 / n.d. | 3.46 | 2/9 (3.40) |
| G26D+V64M | 2.75 / 4.61 / 3.72 | 3.69 | 1/9 (3.08) |
| L29Q+R56K+S63D | n.d. / n.d. / 3.73 | 3.73 | 0/9 |
| G26L+T28L+I34W | 5.38 / n.d. / n.d. | 5.38 | 0/9 |
| G99V+A101L+S107A | 1.70 / 1.70 / 2.52 | 1.97 | 1/9 (3.73) |
| T58F+G103Q+D106E | 2.37 / 2.14 / 2.24 | 2.25 | 1/9 (4.97) |
| L29V+G55W+R56T | 6.50 / 5.61 / 4.03 | 5.38 | 4/9 (4.92) |
| I51R+F59P | n.d. / n.d. / n.d. | n.d. | 2/9 (4.65) |
| R56W+G99Q+D106M | n.d. / n.d. / n.d. | n.d. | 1/9 (3.58) |

Repeated from above, the 8 best binders with a signal in all replicates:

changes,log10 Kd (nM) by replicate,mean log10 Kd (nM),empty controls
K65R+G103S,0.58 / 0.76 / 0.56,0.63,1/9 (4.26)
F105L,1.66 / 1.85 / 1.95,1.82,5/9 (4.59)
G99V+A101L+S107A,1.70 / 1.70 / 2.52,1.97,1/9 (3.73)
T58F+G103Q+D106E,2.37 / 2.14 / 2.24,2.25,1/9 (4.97)
F27S+F105E+D106T,2.11 / 2.07 / 2.83,2.34,2/9 (4.13)
R56S+K65N+D106M,2.48 / 2.17 / 2.80,2.48,2/9 (4.00)
L29A+S63K+V64F,2.55 / 2.47 / 3.02,2.68,3/9 (3.96)
G26D+V64M,2.75 / 4.61 / 3.72,3.69,1/9 (3.08)